Results: PubChem BioAssay AID678 (Vanderbilt High Throughput Screening Facility, 2007)
Only a part is listed here, and it is no random draw. Activity calls are given as the source filed them.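 How the source made its calls: active means fluorescence response below the plate's average for near-maximal glutamate wells, less 3 SD of those wells; inactive means the rest.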

Biological target: Metabotropic glutamate receptor 4 (Homo sapiens) (UniProt Q14833)
Assay: human mGluR4 response to M1 antagonist hits, M1 allosteric modulator project, cell-based, antagonist mode, secondary assay 1 (AID 678);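 further: raw unnormalized fluorescence span taken in the window right after glutamate addition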
Conditions: CHO-mGluR4 calcium flux, Fluo-4 fluorescence, glutamate EC80; at 10 µM; active compounds read low

Structure (SMILES) | fluorescence response (max-min)
CN(C)CCOC(=O)C(O)(c1ccccc1)C1CCCCC1 (configuration not stated) | inactive: 240
CCN(CC)CC(O)COC(=O)C(O)(c1ccccc1)C1CCCCC1 (configuration not stated) | inactive: 258
